{"sequences": {"note": "Sequences of proteins named here, by UniProt entry; tags and fusion partners are left off. Residues count along the entry.", "UniProt P06276, 29-602": "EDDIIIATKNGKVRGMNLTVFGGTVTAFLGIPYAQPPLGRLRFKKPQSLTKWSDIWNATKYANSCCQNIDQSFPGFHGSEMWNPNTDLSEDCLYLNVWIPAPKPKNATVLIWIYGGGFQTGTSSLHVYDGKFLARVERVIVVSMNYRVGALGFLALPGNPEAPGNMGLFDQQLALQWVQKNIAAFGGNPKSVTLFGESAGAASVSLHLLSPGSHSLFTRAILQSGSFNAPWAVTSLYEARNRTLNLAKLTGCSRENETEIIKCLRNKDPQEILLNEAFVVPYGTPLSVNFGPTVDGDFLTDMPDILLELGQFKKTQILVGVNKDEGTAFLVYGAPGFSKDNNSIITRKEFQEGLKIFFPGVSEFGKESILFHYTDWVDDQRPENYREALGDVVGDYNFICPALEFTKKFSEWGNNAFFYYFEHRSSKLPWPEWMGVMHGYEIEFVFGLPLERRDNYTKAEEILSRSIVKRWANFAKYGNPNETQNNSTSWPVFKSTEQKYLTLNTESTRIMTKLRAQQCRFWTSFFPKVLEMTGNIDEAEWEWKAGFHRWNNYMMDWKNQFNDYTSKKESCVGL", "UniProt P22303, 32-617 isoform P22303-2 limits assumed": "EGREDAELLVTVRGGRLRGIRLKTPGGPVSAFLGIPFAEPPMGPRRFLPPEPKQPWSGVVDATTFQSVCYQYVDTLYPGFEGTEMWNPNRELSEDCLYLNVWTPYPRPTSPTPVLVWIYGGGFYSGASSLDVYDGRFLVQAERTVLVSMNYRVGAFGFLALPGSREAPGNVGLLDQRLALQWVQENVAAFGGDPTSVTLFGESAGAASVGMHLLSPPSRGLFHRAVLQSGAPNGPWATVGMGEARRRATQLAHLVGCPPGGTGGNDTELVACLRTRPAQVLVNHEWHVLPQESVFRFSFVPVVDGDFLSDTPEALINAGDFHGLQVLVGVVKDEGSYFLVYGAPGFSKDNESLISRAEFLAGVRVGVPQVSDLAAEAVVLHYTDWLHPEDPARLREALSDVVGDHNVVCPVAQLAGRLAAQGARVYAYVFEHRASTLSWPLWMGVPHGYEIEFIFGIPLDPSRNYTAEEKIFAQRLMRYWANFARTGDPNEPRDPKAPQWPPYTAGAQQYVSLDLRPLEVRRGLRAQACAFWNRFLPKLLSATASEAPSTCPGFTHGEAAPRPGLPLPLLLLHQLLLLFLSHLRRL"}, "source": "paper PMC9102502", "about": "“The Influence of Selected Antipsychotic Drugs on Biochemical Aspects of Alzheimer’s Disease” (International Journal of Molecular Sciences, 2022)", "key": {"BuChE": {"molecular_target": "BuChE (Homo sapiens, UniProt P06276)", "experiment": "Synergism of antipsychotics with donepezil/rivastigmine (binary mixtures), BuChE;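 also: combination index derived by median-effect analysis of combined drug effects on the cholinesterase, with values below 1 meaning synergism, exactly 1 additivity and above 1 antagonism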", "conditions": "rivastigmine 0.25 μmol/L + antipsychotic at TPCmax; ComboSyn"}, "[1]": {"molecular_target": "T1, human plasma butyrylcholinesterase (Homo sapiens, UniProt P06276)", "T1 construct": "The solution of plasma 200-fold diluted with 0.9% NaCl; from tissue; host or cells: citrated plasma from blood of healthy human donors", "experiment": "BuChE inhibition, modified Ellman's method", "type": "biochemical", "conditions": "IC50 AChE/IC50 BuChE; theoretical values from extrapolated plots"}, "AChE": {"molecular_target": "AChE (Homo sapiens, UniProt P22303)", "experiment": "Synergism of antipsychotics with donepezil/rivastigmine (binary mixtures), AChE;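 also: antipsychotic concentration kept fixed across all measurements, selected from estimated therapeutic plasma levels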", "conditions": "ComboSyn"}, "[2]": {"molecular_target": "T2, human erythrocyte acetylcholinesterase (Homo sapiens, UniProt P22303)", "T2 construct": "solution of hemolyzed erythrocytes diluted 400-fold; from tissue; host or cells: hemolyzed erythrocytes from blood of healthy human donors", "experiment": "AChE inhibition, modified Ellman's method", "type": "biochemical", "conditions": "IC50 BuChE/IC50 AChE; theoretical values from extrapolated plots"}}, "note": "Marks after values point to notes of the source that are not given here.", "data": [{"smiles": "OCCOCCN1CCN(C2=Nc3ccccc3Sc3ccccc32)CC1", "note": "[Quetiapine, quetiapine]", "values": [{"measurement": "CI (combination index), BuChE", "setting": "BuChE", "result": 1.02}, {"measurement": "SI BuChE", "setting": "[1]", "result": "113 *"}, {"measurement": "CI (combination index), AChE", "setting": "AChE; donepezil 0.005 μmol/L + antipsychotic at TPCmax, CI < 1 synergism, > 1 antagonism", "result": 1.83}, {"measurement": "CI (combination index), AChE", "setting": "AChE; donepezil 0.01 μmol/L + antipsychotic at TPCmax", "result": 1.50}, {"measurement": "CI (combination index), AChE", "setting": "AChE; donepezil 0.02 μmol/L + antipsychotic at TPCmax", "result": 1.23}, {"measurement": "CI (combination index), AChE", "setting": "AChE; donepezil 0.05 μmol/L + antipsychotic at TPCmax", "result": 1.25}, {"measurement": "CI (combination index), AChE", "setting": "AChE; donepezil 0.1 μmol/L + antipsychotic at TPCmax", "result": 1.24}, {"measurement": "CI (combination index), AChE", "setting": "AChE; rivastigmine 5 μmol/L + antipsychotic at TPCmax", "result": 0.25}, {"measurement": "CI (combination index), AChE", "setting": "AChE; rivastigmine 10 μmol/L + antipsychotic at TPCmax", "result": 0.37}, {"measurement": "CI (combination index), AChE", "setting": "AChE; rivastigmine 15 μmol/L + antipsychotic at TPCmax", "result": 0.39}, {"measurement": "CI (combination index), AChE", "setting": "AChE; rivastigmine 25 μmol/L + antipsychotic at TPCmax", "result": 0.49}, {"measurement": "CI (combination index), AChE", "setting": "AChE; rivastigmine 40 μmol/L + antipsychotic at TPCmax", "result": 0.40}, {"measurement": "CI (combination index), AChE", "setting": "AChE; rivastigmine 50 μmol/L + antipsychotic at TPCmax", "result": 0.57}, {"measurement": "CI (combination index), AChE", "setting": "AChE; rivastigmine 75 μmol/L + antipsychotic at TPCmax", "result": 0.61}, {"measurement": "CI (combination index), AChE", "setting": "AChE; rivastigmine 100 μmol/L + antipsychotic at TPCmax", "result": 0.59}, {"measurement": "SI AChE", "setting": "[2]", "result": "0.009 *"}]}]}
